## Ab-14 light chain CDR variants: yeast mating affinities

Reference: Li et al. 2023, doi:10.1038/s41467-023-39022-2. File: FLAb, binding data.

Antigen: PDVDLGDISGINAS, a 14-residue peptide of the SARS-CoV-2 spike HR2 region.

Ab-14 is the parent antibody, in scFv form: VH, then the linker GGGGSGGGGSGGGGS, then VL. The heavy chain is unchanged in all variants.
VH: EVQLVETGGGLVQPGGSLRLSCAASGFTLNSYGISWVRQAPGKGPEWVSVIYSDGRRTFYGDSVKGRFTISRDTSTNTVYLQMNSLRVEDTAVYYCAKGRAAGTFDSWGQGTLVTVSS
VL: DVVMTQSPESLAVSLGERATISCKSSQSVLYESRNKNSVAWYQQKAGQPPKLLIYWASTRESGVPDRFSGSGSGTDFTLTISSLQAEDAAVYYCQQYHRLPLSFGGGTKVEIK

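The starting antibody came from a phage panning campaign against this peptide. This is the validation round: designs drawn from the data on random variants, tested in the same kind of assay. Group labels follow the data file (Ctrl: baseline library sampled from a position-specific scoring matrix, with some repeated check sequences; Rand: our label for a block that the file lists under HC and that is probably the random mutants of the ten best first-round binders; GP: Gaussian process model; GPLM: also part of the Gaussian process libraries; HC: hill climbing; Gen: genetic algorithm; Gibbs: Gibbs sampling; a sequence that several methods proposed may carry one label only). Affinity was read by AlphaSeq, a pooled yeast mating assay with surface-displayed partners. After mating in shaken culture at 30 °C for 16 h, diploids were selected and their barcode pairs sequenced. Scores were corrected for input abundance and mapped to Kd with protein pairs of known affinity run in the same pool. There are six technical replicates.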

Each variant's VL is given in full.
This list holds designs with at most six substitutions.
Numbers give log10(Kd / nM), so 0 is 1 nM and 3 is 1 µM. Smaller is tighter.
An entry "ND" has no value in the source: the pair was not observed among the diploids in that replicate. This suggests poor binding but is not conclusive.
The range of this assay differs from that of the first round, and the authors advise against merging the two.

Variant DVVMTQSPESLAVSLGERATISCKQSQEKLYESRNKNSVAWYQQKAGQPPKLLIYDASTRESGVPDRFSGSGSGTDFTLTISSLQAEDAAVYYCQQYHRLPLSFGGGTKVEIK [Rand] showed 0.15, 0.30, -0.22, -0.19, -0.01, -0.06.
Variant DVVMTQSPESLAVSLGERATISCKLSQSDLYESRNKNSVAWYQQKAGQPPKLLIYHASTRMSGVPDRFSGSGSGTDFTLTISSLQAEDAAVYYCQQYHRLPLSFGGGTKVEIK [GP_Gen] showed 0.28, 0.10, 0.07, -0.02, 0.12, 0.23.
Variant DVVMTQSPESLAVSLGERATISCKSSWSVLDESRNKNSVAWYQQKAGQPPKLLIYDASTRSSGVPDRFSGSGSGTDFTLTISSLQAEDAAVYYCQQYHRLPLSFGGGTKVEIK [GP_HC] showed 0.17, -0.01, -0.18, 0.08, -0.11, 0.10.
Variant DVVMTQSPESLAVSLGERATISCKCSQSWLYESRNKNSVAWYQQKAGQPPKLLIYGASTRESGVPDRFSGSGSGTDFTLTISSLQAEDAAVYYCQQYHRLPLSFGGGTKVEIK [GP_HC] showed 0.12, 0.34, -0.04, -0.36, -0.26, 0.38.
Variant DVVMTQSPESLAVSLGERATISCKLDQSTKYESRNQNSVAWYQQKAGQPPKLLIYWASTRESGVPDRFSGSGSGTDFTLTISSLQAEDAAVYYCQQYHRLPLSFGGGTKVEIK [GP_HC] showed 0.49, 0.18, 0.12, 0.28, -0.02, -0.22.
Variant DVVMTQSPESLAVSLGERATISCKSSQSVLYESRNKNSVAWYQQKAGQPPKLLIYNASTRASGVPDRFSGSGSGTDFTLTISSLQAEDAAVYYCQQYHRLPLSFGGGTKVEIK [Ctrl] showed 1.05, 1.14, 0.91, 1.20, 1.12, 1.20.
Variant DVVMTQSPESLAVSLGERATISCKISQSVLYESRNKNSVAWYQQKAGQPPKLLIYWASQRESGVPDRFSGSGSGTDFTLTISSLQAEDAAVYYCQQYHRLPLSFGGGTKVEIK [Ctrl] showed 0.70, 0.86, 0.46, 0.57, 0.78, 0.70.
Variant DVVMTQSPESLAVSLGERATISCKVSQEGLYESRNKNSVAWYQQKAGQPPKLLIYDASTRESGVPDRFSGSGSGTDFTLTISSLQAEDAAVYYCQQYHRLPLSFGGGTKVEIK [GP_HC] showed 0.63, 0.60, 0.33, 0.45, 0.69, 0.70.
Variant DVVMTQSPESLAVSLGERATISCKLRMSTLYESRNKNSVAWYQQKAGQPPKLLIYGASTRESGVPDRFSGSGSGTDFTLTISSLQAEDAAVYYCQQYHRLPLSFGGGTKVEIK [GP_HC] showed -0.13, -0.15, -0.31, -0.28, -0.09, -0.27.
Variant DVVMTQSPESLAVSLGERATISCKVSQSVLFESRNSNSVAWYQQKAGQPPKLLIYQESTRESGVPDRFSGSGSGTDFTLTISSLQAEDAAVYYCQQYHRLPLSFGGGTKVEIK [Ctrl] showed 0.32, 0.11, 0.12, 0.01, 0.11, 0.16.
Variant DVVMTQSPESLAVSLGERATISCKSSGSQLYESRNKNSVAWYQQKAGQPPKLLIYGASTRESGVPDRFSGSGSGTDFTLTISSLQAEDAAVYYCQQYHRLTLSFGGGTKVEIK [GP_HC] showed -0.53, 0.74, -0.02, -0.13, -0.66, -0.24.
Variant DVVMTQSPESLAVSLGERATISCKSSQSVLNESRNKNSVAWYQQKAGQPPKLLIYEASTRESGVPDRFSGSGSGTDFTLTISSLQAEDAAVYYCQQYHRLPLWFGGGTKVEIK [Ctrl] showed 1.42, 1.15, 1.17, 0.59, 0.63, 1.13.
Variant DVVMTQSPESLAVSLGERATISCKLEQSQLYESRNKNNVAWYQQKAGQPPKLLIYNASQRESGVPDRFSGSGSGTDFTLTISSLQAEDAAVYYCQQYHRLPLSFGGGTKVEIK [GP_Gen] showed -0.28, -0.28, -0.05, -0.37, -0.19, 0.00.
Variant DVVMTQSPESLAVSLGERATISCKSAQSTLQESRNKNSVAWYQQKAGQPPKLLIYHASTRESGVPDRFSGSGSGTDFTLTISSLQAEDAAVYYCQQYHRLPNSFGGGTKVEIK [Ctrl] showed 1.42, 1.96, 1.67, 1.59, 1.33, 1.54.
Variant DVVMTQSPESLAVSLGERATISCKHSQSVLQESRNKNSVAWYQQKAGQPPKLLIYWASTRESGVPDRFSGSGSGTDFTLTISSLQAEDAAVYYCQQYHRLPLSFGGGTKVEIK [Ctrl] showed 3.58, ND, ND, ND, 2.61, 2.57.
Variant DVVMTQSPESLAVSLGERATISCKVSQSHLYESRNKNAVAWYQQKAGQPPKLLIYDASTRESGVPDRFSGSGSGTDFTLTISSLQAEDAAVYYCQQYHRLPLSFGGGTKVEIK [GP_Gen] showed 0.07, 0.00, -0.02, -0.03, -0.08, 0.15.
Variant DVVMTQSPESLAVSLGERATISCKLSQSTLYESRNKNSVAWYQQKAGQPPKLLIYGASTRESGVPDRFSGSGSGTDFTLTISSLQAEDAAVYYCQQYHRLPLSFGGGTKVEIK [GPLM_HC] showed 0.54, 0.19, 0.71, 0.33, 0.38, 0.79.
Variant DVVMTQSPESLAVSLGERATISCKLSQSKLYESRNKNNVAWYQQKAGQPPKLLIYEASQRESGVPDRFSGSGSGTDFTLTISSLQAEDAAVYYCQQYHRLPLSFGGGTKVEIK [GP_Gen] showed -0.68, -0.74, -0.89, -0.53, -0.76, -0.60.
Variant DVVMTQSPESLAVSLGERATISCKLSEDALYESRNKNSVAWYQQKAGQPPKLLIYNASTREVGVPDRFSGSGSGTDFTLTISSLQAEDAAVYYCQQYHRLPLSFGGGTKVEIK [GP_Gibbs] showed -0.30, -0.21, -0.37, -0.35, -0.22, -0.23.
Variant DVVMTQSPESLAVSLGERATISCKSAQSVLYESNNKNSVAWYQQKAGQPPKLLIYWASTRESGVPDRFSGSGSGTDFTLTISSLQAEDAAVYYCQQYHRLPLSFGGGTKVEIK [Ctrl] showed 1.50, 0.29, ND, 1.60, 1.58, ND.
Variant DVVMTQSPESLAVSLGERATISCKLSQSWGYQSRNKNSVAWYQQKAGQPPKLLIYNASTREDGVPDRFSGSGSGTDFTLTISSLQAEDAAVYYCQQYHRLPLSFGGGTKVEIK [GP_Gibbs] showed 0.31, -0.87, 0.32, -0.07, -0.01, -0.25.
Variant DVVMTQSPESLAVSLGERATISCKSSQSVLYESENKNSVAWYQQKAGQPPKLLIYDASTRESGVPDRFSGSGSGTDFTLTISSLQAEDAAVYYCQQYHRLPLSFGGGTKVEIK [Ctrl] showed 0.35, 0.48, 0.28, 0.31, 0.51, 0.25.
Variant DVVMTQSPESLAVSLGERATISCKLSQSELYESRNPNSVAWYQQKAGQPPKLLIYNASTRMSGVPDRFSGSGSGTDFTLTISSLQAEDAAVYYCQQYHRLPLSFGGGTKVEIK [GP_Gen] showed -0.17, -0.62, -0.53, -0.49, -0.52, -0.32.
Variant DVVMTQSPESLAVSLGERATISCKASQSVLYESRNKNSVAWYQQKAGQPPKLLIYWASMRESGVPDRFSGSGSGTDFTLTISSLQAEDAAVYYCQQYSRLGLFFGGGTKVEIK [Ctrl] showed ND, ND, ND, ND, ND, ND.

The authors' rule: three or more of the six replicates give a measured affinity, fewer mean a poor binder.
Empty control strains, which show no peptide, gave a signal in 4% of pairings with all light chain designs; the median was 2.64 and 95% of these signals were weaker than 1.59. No background was subtracted.